Results published in US7112341B1, “Pulmonary administration of dry powder formulations for treating infertility” (Nektar Therapeutics, priority 1999, dated 2006).

Assay: Pharmacokinetics of uFSH following pulmonary and subcutaneous administration in cynomolgus monkeys
Type: in vivo
Settings: for Percent Bioavailability: from AUC0-∞, inhaled dose
[1] = PUL 3.8 ± 1.7 μg/kg (low dose), individual animals
[2] = PUL 3.8 ± 1.7 μg/kg (low dose), mean
[3] = PUL 18.4 ± 1.3 μg/kg (mid dose), individual animals
[4] = PUL 18.4 ± 1.3 μg/kg (mid dose), mean
[5] = PUL 37.2 ± 3.9 μg/kg (high dose), individual animals
[6] = PUL 37.2 ± 3.9 μg/kg (high dose), mean

uFSH: FSH derived from human urine (Vitro Diagnostics, Inc.); mixture of hFSH and hFSH analogs
AUC0–t [1]: 0 mIU*h/mL and 132.9 mIU*h/mL and 363.2 mIU*h/mL and 237.6 mIU*h/mL and 129.5 mIU*h/mL | CMax [1]: 0 mIU/mL and 4.6 mIU/mL and 8.5 mIU/mL and 5.6 mIU/mL and 4.7 mIU/mL | TMax [1]: 0 h and 12 h (2×) and 24 h (2×) | AUC0–t [2]: 172.6 mIU*h/mL and 173 mIU*h/mL | CMax [2]: 4.7 mIU/mL | TMax [2]: 14.4 h | Serum concentration of immunoreactive FSH (PUL 3.8 ± 1.7 μg/kg (low dose, powder 2010), 0 h (predose), individual animals): BQL | Serum concentration of immunoreactive FSH (PUL 3.8 ± 1.7 μg/kg (low dose, powder 2010), 0 h (predose), mean): 0 mIU/mL | Serum concentration of immunoreactive FSH (PUL 3.8 ± 1.7 μg/kg, 0.08 h, individual animals): BQL | Serum concentration of immunoreactive FSH (PUL 3.8 ± 1.7 μg/kg, 0.08 h, mean): 0 mIU/mL | Serum concentration of immunoreactive FSH (PUL 3.8 ± 1.7 μg/kg, 0.25 h, individual animals): BQL | Serum concentration of immunoreactive FSH (PUL 3.8 ± 1.7 μg/kg, 0.25 h, mean): 0 mIU/mL | Serum concentration of immunoreactive FSH (PUL 3.8 ± 1.7 μg/kg, 0.5 h, individual animals): BQL | Serum concentration of immunoreactive FSH (PUL 3.8 ± 1.7 μg/kg, 0.5 h, mean): 0 mIU/mL | Serum concentration of immunoreactive FSH (PUL 3.8 ± 1.7 μg/kg, 1 h, individual animals): BQL | Serum concentration of immunoreactive FSH (PUL 3.8 ± 1.7 μg/kg, 1 h, mean): 0 mIU/mL | Serum concentration of immunoreactive FSH (PUL 3.8 ± 1.7 μg/kg, 3 h, individual animals): BQL | Serum concentration of immunoreactive FSH (PUL 3.8 ± 1.7 μg/kg, 3 h, mean): 0 mIU/mL | Serum concentration of immunoreactive FSH (PUL 3.8 ± 1.7 μg/kg, 6 h, individual animals): BQL and 3.1 mIU/mL and 4.5 mIU/mL and 3.7 mIU/mL (2×) | Serum concentration of immunoreactive FSH (PUL 3.8 ± 1.7 μg/kg, 6 h, mean): 3.8 mIU/mL | Serum concentration of immunoreactive FSH (PUL 3.8 ± 1.7 μg/kg, 9 h, individual animals): BQL and 4.5 mIU/mL and 6.1 mIU/mL and 4.9 mIU/mL and 4.3 mIU/mL | Serum concentration of immunoreactive FSH (PUL 3.8 ± 1.7 μg/kg, 9 h, mean): 5.0 mIU/mL | Serum concentration of immunoreactive FSH (PUL 3.8 ± 1.7 μg/kg, 12 h, individual animals): BQL and 4.6 mIU/mL and 8.1 mIU/mL and 5.2 mIU/mL and 4.7 mIU/mL | Serum concentration of immunoreactive FSH (PUL 3.8 ± 1.7 μg/kg, 12 h, mean): 5.7 mIU/mL | Serum concentration of immunoreactive FSH (PUL 3.8 ± 1.7 μg/kg, 24 h, individual animals): BQL and 4.2 mIU/mL and 8.5 mIU/mL and 5.6 mIU/mL and 3.9 mIU/mL | Serum concentration of immunoreactive FSH (PUL 3.8 ± 1.7 μg/kg, 24 h, mean): 5.6 mIU/mL | Serum concentration of immunoreactive FSH (PUL 3.8 ± 1.7 μg/kg, 48 h, individual animals): BQL (3×) and 4.9 mIU/mL and 3.0 mIU/mL | Serum concentration of immunoreactive FSH (PUL 3.8 ± 1.7 μg/kg, 48 h, mean): 4.0 mIU/mL | Serum concentration of immunoreactive FSH (PUL 3.8 ± 1.7 μg/kg, 72 h, individual animals): BQL | Serum concentration of immunoreactive FSH (PUL 3.8 ± 1.7 μg/kg, 72 h, mean): 0 mIU/mL | Percent Bioavailability (PUL 18.4 ± 1.3 μg/kg (mid dose) relative to SC, individual animals): 5.5% and 4.7% and 4.0% and 6.0% and 7.7% | Percent Bioavailability (PUL 18.4 ± 1.3 μg/kg (mid dose) relative to SC, mean): 5.6% | AUC0–t [3]: 941.3 mIU*h/mL and 1001.8 mIU*h/mL and 755.2 mIU*h/mL and 847.8 mIU*h/mL and 1436.9 mIU*h/mL | AUC0–∞ [3]: 1053.5 mIU*h/mL and 1157.9 mIU*h/mL and 843.4 mIU*h/mL and 1079.3 mIU*h/mL and 1546.8 mIU*h/mL | CMax [3]: 29.1 mIU/mL and 25.2 mIU/mL and 24.4 mIU/mL and 20.4 mIU/mL and 40.1 mIU/mL | Half-Life [3]: 20.9 h and 23.5 h and 20.5 h and 30.4 h and 17.83 h | TMax [3]: 9.0 h (2×) and 12.0 h (3×) | AUC0–t [4]: 996.6 mIU*h/mL and 997 mIU*h/mL | AUC0–∞ [4]: 1136.0 mIU*h/mL and 1136 mIU*h/mL | CMax [4]: 27.8 mIU/mL | Half-Life [4]: 21.9 h | TMax [4]: 10.8 h | Serum concentration of immunoreactive FSH (PUL 18.4 ± 1.3 μg/kg (mid dose, powder 2010), 0 h (predose), individual animals): BQL | Serum concentration of immunoreactive FSH (PUL 18.4 ± 1.3 μg/kg (mid dose, powder 2010), 0 h (predose), mean): 0 mIU/mL | Serum concentration of immunoreactive FSH (PUL 18.4 ± 1.3 μg/kg, 0.08 h, individual animals): BQL | Serum concentration of immunoreactive FSH (PUL 18.4 ± 1.3 μg/kg, 0.08 h, mean): 0 mIU/mL | Serum concentration of immunoreactive FSH (PUL 18.4 ± 1.3 μg/kg, 0.25 h, individual animals): BQL | Serum concentration of immunoreactive FSH (PUL 18.4 ± 1.3 μg/kg, 0.25 h, mean): 0 mIU/mL | Serum concentration of immunoreactive FSH (PUL 18.4 ± 1.3 μg/kg, 0.5 h, individual animals): BQL | Serum concentration of immunoreactive FSH (PUL 18.4 ± 1.3 μg/kg, 0.5 h, mean): 0 mIU/mL | Serum concentration of immunoreactive FSH (PUL 18.4 ± 1.3 μg/kg, 1 h, individual animals): BQL (4×) and 4.4 mIU/mL | Serum concentration of immunoreactive FSH (PUL 18.4 ± 1.3 μg/kg, 1 h, mean): 0.9 mIU/mL | Serum concentration of immunoreactive FSH (PUL 18.4 ± 1.3 μg/kg, 3 h, individual animals): 6.9 mIU/mL and 13.1 mIU/mL and 6.4 mIU/mL and 5.5 mIU/mL and 16.6 mIU/mL | Serum concentration of immunoreactive FSH (PUL 18.4 ± 1.3 μg/kg, 3 h, mean): 9.7 mIU/mL | Serum concentration of immunoreactive FSH (PUL 18.4 ± 1.3 μg/kg, 6 h, individual animals): 20.0 mIU/mL and 21.0 mIU/mL and 16.6 mIU/mL and 18.8 mIU/mL and 33.0 mIU/mL | Serum concentration of immunoreactive FSH (PUL 18.4 ± 1.3 μg/kg, 6 h, mean): 21.9 mIU/mL | Serum concentration of immunoreactive FSH (PUL 18.4 ± 1.3 μg/kg, 9 h, individual animals): 29.1 mIU/mL and 24.3 mIU/mL and 19.4 mIU/mL and 17.2 mIU/mL and 40.1 mIU/mL | Serum concentration of immunoreactive FSH (PUL 18.4 ± 1.3 μg/kg, 9 h, mean): 26.0 mIU/mL | Serum concentration of immunoreactive FSH (PUL 18.4 ± 1.3 μg/kg, 12 h, mean): 27.3 mIU/mL | Serum concentration of immunoreactive FSH (PUL 18.4 ± 1.3 μg/kg, 24 h, individual animals): 19.6^(2) mIU/mL and 20.4^(2) mIU/mL and 13.7^(2) mIU/mL and 16.3^(2) mIU/mL and 31.3^(2) mIU/mL | Serum concentration of immunoreactive FSH (PUL 18.4 ± 1.3 μg/kg, 24 h, mean): 20.3 mIU/mL | Serum concentration of immunoreactive FSH (PUL 18.4 ± 1.3 μg/kg, 48 h, individual animals): 7.4^(2) mIU/mL and 9.3^(2) mIU/mL and 6.9^(2) mIU/mL and 9.0^(2) mIU/mL and 10.7^(2) mIU/mL | Serum concentration of immunoreactive FSH (PUL 18.4 ± 1.3 μg/kg, 48 h, mean): 8.7 mIU/mL | Serum concentration of immunoreactive FSH (PUL 18.4 ± 1.3 μg/kg, 72 h, individual animals): 3.9^(2) mIU/mL and 4.5^(2) mIU/mL and 3.0^(2) mIU/mL and 5.3^(2) mIU/mL and 4.2^(2) mIU/mL | Serum concentration of immunoreactive FSH (PUL 18.4 ± 1.3 μg/kg, 72 h, mean): 4.2 mIU/mL | Percent Bioavailability (PUL 37.2 ± 3.9 μg/kg (high dose) relative to SC, individual animals): 9.3% and 3.2% and 13.6% and 4.4% and 6.4% | Percent Bioavailability (PUL 37.2 ± 3.9 μg/kg (high dose) relative to SC, mean): 7.4% | AUC0–t [5]: 3023.6 mIU*h/mL and 1574.9 mIU*h/mL and 5069.1 mIU*h/mL and 1506.5 mIU*h/mL and 1601 mIU*h/mL | AUC0–∞ [5]: 3554.7 mIU*h/mL and 1981.5 mIU*h/mL and 5659.1 mIU*h/mL and 1845.2 mIU*h/mL and 1790.4 mIU*h/mL | CMax [5]: 82.4 mIU/mL and 36.0 mIU/mL and 155.0 mIU/mL and 36.7 mIU/mL and 39.8 mIU/mL | Half-Life [5]: 25.3 h and 29.4 h and 20.52 h and 27.9 h and 20.9 h | TMax [5]: 9.3 h and 12.3 h (4×) | AUC0–t [6]: 2555.0 mIU*h/mL and 2555 mIU*h/mL | AUC0–∞ [6]: 2968.0 mIU*h/mL and 2968 mIU*h/mL | CMax [6]: 70.0 mIU/mL | Half-Life [6]: 24.3 h | TMax [6]: 11.7 h | Serum concentration of immunoreactive FSH (PUL 37.2 ± 3.9 μg/kg (high dose, powder 2010), 0 h (predose), individual animals): BQL | Serum concentration of immunoreactive FSH (PUL 37.2 ± 3.9 μg/kg (high dose, powder 2010), 0 h (predose), mean): 0 mIU/mL | Serum concentration of immunoreactive FSH (PUL 37.2 ± 3.9 μg/kg, 0.33 h, individual animals): BQL | Serum concentration of immunoreactive FSH (PUL 37.2 ± 3.9 μg/kg, 0.33 h, mean): 0 mIU/mL | Serum concentration of immunoreactive FSH (PUL 37.2 ± 3.9 μg/kg, 0.5 h, individual animals): BQL (4×) and 4.3 mIU/mL

Several values for one entry are separate records, joined by “and”; a condition that tells them apart may be missing. Equal values may be shown once.
